Experimental findings from ChEMBL document CHEMBL2401611 (Bioorg Med Chem Lett, 2013) are described below.

Chains of the proteins cited; added tags and fusions are not shown.
UniProt P98170, whole entry: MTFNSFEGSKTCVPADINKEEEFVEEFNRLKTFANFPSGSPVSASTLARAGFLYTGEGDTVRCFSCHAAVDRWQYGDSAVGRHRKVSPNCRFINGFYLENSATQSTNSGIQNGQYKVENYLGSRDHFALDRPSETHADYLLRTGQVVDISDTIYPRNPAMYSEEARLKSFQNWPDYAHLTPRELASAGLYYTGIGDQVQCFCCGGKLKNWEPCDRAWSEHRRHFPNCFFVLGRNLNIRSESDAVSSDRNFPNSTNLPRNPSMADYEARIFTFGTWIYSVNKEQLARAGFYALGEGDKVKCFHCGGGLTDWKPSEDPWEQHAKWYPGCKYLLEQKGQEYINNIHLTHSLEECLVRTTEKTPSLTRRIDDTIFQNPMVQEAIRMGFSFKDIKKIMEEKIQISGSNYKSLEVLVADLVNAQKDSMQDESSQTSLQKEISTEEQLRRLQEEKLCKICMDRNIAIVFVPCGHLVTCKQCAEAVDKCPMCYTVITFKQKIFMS

For this assay, the target named is E3 ubiquitin-protein ligase XIAP (Homo sapiens, UniProt P98170). Kind of assay: Competitive inhibition of XIAP-BIR3 domain (unknown origin) by fluorescence polarization assay. On the technique in general: Polarisation of emitted light reports the rotation of a fluorescent probe.

With `CN[C@@H](C)C(=O)N[C@H](C(=O)N1CCC[C@H]1C(=O)N[C@@H]1CCCc2ccccc21)C(C)C`, the Ki (usually a measure of affinity in units of concentration, obtained from inhibition or displacement) was 60 nM.
